Values of other authors as cited in US10676780B2, “Stabilisation and isolation of extracellular nucleic acids” (QIAGEN GmbH, priority 2011, dated 2020).

Sequences of proteins named here, by UniProt entry; tags and fusion partners are left off. Residues count along the entry.
UniProt P29466, 120-404 limits assumed: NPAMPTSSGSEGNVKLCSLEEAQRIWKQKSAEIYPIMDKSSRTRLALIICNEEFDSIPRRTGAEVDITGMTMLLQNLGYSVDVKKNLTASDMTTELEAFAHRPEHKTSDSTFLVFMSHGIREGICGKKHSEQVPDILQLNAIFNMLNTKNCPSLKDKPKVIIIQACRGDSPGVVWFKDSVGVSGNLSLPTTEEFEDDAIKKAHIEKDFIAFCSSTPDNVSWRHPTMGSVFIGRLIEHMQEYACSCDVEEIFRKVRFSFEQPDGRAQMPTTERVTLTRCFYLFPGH

Molecular target: caspase-1 (Homo sapiens, UniProt P29466)
Settings: cited from earlier work

Ac-IETD-aldehyde
Ki: < 6 nM
